Screening data (PubChem BioAssay)
TDP1 inh = blocks human tyrosyl-DNA phosphodiesterase 1. AID 485290. recombinant TDP1, AlphaScreen DNA substrate cleavage. Potency, µM (top dose mostly 130 µM), hits mostly inhibitors. 350,000 compounds, 0.28% hits; also: nearly all actives have a fitted effect of over 40% in size
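AlphaScreen read-out: signal falls as enzyme removes the 3' tyrosine-FITC from a 5'-biotinylated DNA oligo (15 nM, 5 min, RT). Enzyme was E. coli-made recombinant Tdp1 at 1 nM, exposed to compound for 15 min beforehand; beads 10 ug/ml, 10 min.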
uPA surface inh = cell surface uPA generation inhibition; Potency, µM (titrated, usually from 38.3 µM), actives largely listed as inhibitors; cell surface uPA generation assay, qHTS; 330,000 compounds, 0.31% hits; active = well fitted inhibition curve with a large enough effect; inconclusive = small, poorly fitted or top-dose-only effect; inactive = no such curve, though single readings can be large or run the other way; tested in mouse RAW 264.7 cells; also: nearly all actives have a fitted effect of over 55% in size
DT40 TDP1 CPT = DT40-hTDP1 cell growth loss with CPT; chicken DT40 Tdp1-/-;hTDP1 cells + 20 nM CPT, ATP luminescence, 48 h; Potency, µM (titrated, usually from 46.2 µM), hits mostly inhibitors; 420,000 compounds, 12% hits; also: nearly all actives have a fitted effect of over 55% in size
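Chicken DT40 Tdp1-/- cells complemented with human TDP1, 400 cells/well, exposed to compounds plus 20 nM camptothecin for at least 48 h at 37 C; viability read as ATP content by CellTiter-Glo luminescence.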
miR-21 reporter = miR-21 reporter, rising signal | Potency, µM (highest dose often 38.3 µM) | 340,000 tested, under 10 active | HeLa miR-21 FLuc reporter, luciferase, 48 h; active = well fitted rising curve with a large enough effect; inconclusive = small, poorly fitted or top-dose-only effect; inactive = no such curve, though single readings can be large or run the other way;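 note: miR-21 action dims this reporter so a rising signal means less miR-21 action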
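Using DMEM plus 10% FBS, HeLa miR-21-FLuc cells are incubated with test compounds (final up to about 40uM) for 48 hours; firefly luciferase signal is then imaged following reagent-mediated lysis.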
DT40 TDP1 no CPT = qHTS for Inhibitors of human tyrosyl-DNA phosphodiesterase 1 (TDP1): qHTS in cells in absence of CPT. Potency, µM (top dose mostly 46.2 µM), most hits filed as inhibitors. AID 686978, 2013. DT40 Tdp1-/- hTDP1 cells, no CPT, ATP luminescence, 48 h. 420,000 compounds, 15% hits; also: nearly all actives have a fitted effect of over 55% in size
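A cellular qHTS used chicken DT40 cells lacking endogenous Tdp1 but carrying stably transfected human TDP1. Compounds were applied without camptothecin, and cell growth kinetics were judged by ATP-dependent luminescence after ≥48 hr.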
A number is an active result; 0 = inactive; ? = inconclusive; - = not tested or not shown. Compounds with a hit are over-represented: about 16% of the library has one in this group of screens. Unless noted, calls follow the shape of the dose curve; as a rule, active = well fitted curve in the direction sought with a large enough effect; inconclusive = small, poorly fitted or top-dose-only effect, or another doubt; inactive = no such curve, though single readings can be large; an effect the other way counts as inactive or inconclusive.

SMILES	TDP1 inh	uPA surface inh	DT40 TDP1 CPT	miR-21 reporter	DT40 TDP1 no CPT
CC(NC(=O)c1cc2cc(Br)ccc2oc1=N)c1ccccc1 (configuration not stated)	0	0	16.4µM	0	16.4µM
CN(C)c1nc(SCC(=O)Nc2ccc(Cl)c(Cl)c2)nc(N2CCOCC2)n1	?	0	0	0	23.1µM
CCOc1ccc(NC(=O)CSc2nc(N3CCOCC3)nc(N3CCOCC3)n2)cc1	0	0	0	0	0
CC(C)(C)Nc1nc(SCC(=O)Nc2ccccc2)nc(N2CCOCC2)n1	0	0	?	0	23.1µM
CCNc1nc(SCC(=O)Nc2ccc(Cl)c(Cl)c2)nc(N2CCOCC2)n1	0	0	?	0	18.4µM
COc1cc(CC(=O)NCc2ccccn2)cc(OC)c1OC	0	0	0	0	0
CO/N=C/c1ccc(Oc2ccc(C)cc2)c([N+](=O)[O-])c1	0	0	?	0	20.6µM
CCCCCCCCCCC[C@@H](C[C@@H]1OC(=O)[C@H]1CCCCCC)OC(=O)[C@H](CC(C)C)NC=O	0	0	?	0	18.4µM
COc1ccc(-c2nc(S(=O)(=O)c3ccc(Cl)cc3)c(NCc3ccccc3)o2)cc1	-	-	16.4µM	?	?
O=S(=O)(c1ccc(Cl)cc1)c1nc(-c2ccccc2F)oc1NCc1ccccc1	-	-	?	0	18.4µM
CCCCOc1ccc(C(=O)N2CCNC(=O)C2CC(=O)OC(C)C)cc1 (configuration not stated)	-	0	0	0	0
Brc1ccc(-c2csc(NNC3=NCCCCC3)n2)cc1	0	0	?	0	?
FC(F)Oc1ccc(-c2csc(NNC3=NCCCCC3)n2)cc1	0	0	4.61µM	0	14.6µM
CCC(C)[C@H]1CNC(=S)N1CCc1cccc2ccccc12 (some centres not stated)	0	0	?	0	0
NC1=NC[C@@H](Cc2ccc(O)cc2)N1CCc1cccc2ccccc12	0	0	18.4µM	0	?
O=C1NC[C@@H](Cc2ccc(O)cc2)N(CCc2cccc3ccccc23)C1=O	?	0	0	0	0
NCCCC[C@H]1CN=C(N)N1CCc1cccc2ccccc12	-	0	0	-	0
NC1=NC[C@H](Cc2ccc(O)cc2)N1CCc1cccc2ccccc12	0	0	18.4µM	0	14.6µM
CCC(C)[C@H]1CN=C(N)N1CCc1cccc2ccccc12 (some centres not stated)	-	0	1.84µM	-	2.06µM
Cc1ccc(-n2cccn2)c(CN2CCCC(CNC(=O)c3ccc(F)cc3)C2)c1 (configuration not stated)	0	0	?	0	11.6µM
CCCn1cc(CN2CCCC(CNC(=O)c3ccc(F)cc3)C2)c(C)n1 (configuration not stated)	0	0	0	0	0
O=C(c1ccccc1)N1CCN(c2ncnc3c2cnn3-c2ccccc2)CC1	0	0	23.1µM	0	20.6µM
O=C(c1cccc(Cl)c1)N1CCN(c2ncnc3c2cnn3-c2ccccc2)CC1	0	0	0	0	0
Cc1nn(-c2ccccc2)c(Cl)c1C(=O)N1CCN(c2ncnc3c2cnn3-c2ccccc2)CC1	0	0	3.26µM	0	4.11µM
O=C(c1ccco1)N1CCN(c2ncnc3c2cnn3-c2ccccc2)CC1	0	0	?	0	29.1µM
SMILES	TDP1 inh	uPA surface inh	DT40 TDP1 CPT	miR-21 reporter	DT40 TDP1 no CPT
Cc1nc2c(C(=O)O)cnn2c(C)c1Cc1ccccc1	0	-	0	0	0
Cc1ccccc1Cc1c(C)nc2c(C(=O)NCc3ccco3)cnn2c1C	0	-	14.1µM	0	?
Cc1nc2c(C(=O)NCc3ccccc3)cnn2c(C)c1Cc1ccc(F)cc1	0	-	7.31µM	0	8.2µM
Cc1nc2c(C(=O)N3CCCC3)cnn2c(C)c1Cc1c(F)cccc1Cl	0	-	0	0	0
COc1ccc(CNC(=O)c2cnn3c(C)c(Cc4c(F)cccc4Cl)c(C)nc23)cc1	0	-	11.6µM	0	20.6µM
O=C(O)C(CCC(C(=O)O)c1ccccc1)c1ccccc1 (configuration not stated)	-	0	0	-	0
CCN(CC)CCNCc1ccc(-c2ccc(Cl)cc2)o1	0	0	?	0	?
CCN(CC)CCNCC(O)(c1ccc(Cl)cc1)c1ccc(Cl)cc1	0	0	?	0	16.4µM
CCC(CC)NC(=O)c1ccc(Cl)cc1	0	0	0	0	0
CC(C)NCC(O)(c1ccc(Cl)cc1)c1ccc(Cl)cc1	0	0	?	0	20.6µM
NCC(O)(c1ccc(Cl)cc1)c1ccc(Cl)cc1	0	0	16.4µM	0	10.3µM
CCN(CC)CCOc1ccc(C(O)(Cc2ccc(Cl)cc2)c2ccc(C)cc2)cc1 (configuration not stated)	0	-	2.99µM	-	4.73µM
Cc1ccsc1C(=O)OC(C)C(=O)NC1CCCCC1C (configuration not stated)	0	0	0	-	0
Cc1ccc(C(=O)NCCc2nnc3ccc(NCCCN4CCOCC4)nn23)cc1	0	0	0	0	0
O=C(CSc1nnc2ccc(-c3ccccn3)nn12)Nc1cccc(F)c1	-	-	0	-	0
CN(C)N=Nc1ccc(/C=C2\C=Cc3ccccc32)cc1	-	-	14.1µM	-	?
CN(C)/C=C1\C=Cc2ccccc21	-	-	?	-	12.6µM
NC(N)=Nc1ccc(/C=C2\C=Cc3ccccc32)cc1	-	-	11.2µM	-	12.6µM
CC1(C(=O)NS(=O)(=O)c2ccc(Cl)cc2)CCN1C(=O)COc1ccc(Cl)cc1 (configuration not stated)	-	-	0	-	0
Cc1[nH]c2ccccc2c1C(=O)CN1CCN(C/C=C/c2ccccc2)CC1	0	0	?	0	18.4µM
COc1cc(NC(=O)CCN2CCN(C/C=C/c3ccccc3)CC2)cc(OC)c1	0	0	?	0	20.6µM
Cc1[nH]c2ccccc2c1C(=O)CN1CCN(C2CCCCC2)CC1	0	-	-	0	-
COc1ccc2[nH]c(C)c(C(=O)CN3CCN(C/C=C/c4ccccc4)CC3)c2c1	-	0	18.4µM	0	?
CN1CCN(C(=S)NC(=O)/C=C/c2ccccc2Cl)CC1	0	0	0	0	0
Cc1cc(C)nc(SCC(=O)OC(C)C(=O)Nc2ccccc2)n1 (configuration not stated)	0	0	0	0	0
CCN(CC)C(=O)Cn1c(=O)n(CCCCCC(=O)NCc2ccc3c(c2)OCO3)c(=O)c2sccc21	0	-	?	0	0
CC(NC(=S)NC1CCCCC1)c1ccc(C(C)(C)C)cc1 (configuration not stated)	0	0	9.2µM	0	?
CC(C)c1ccc(C(C)NC(=S)NC2CCCCC2)cc1 (configuration not stated)	0	0	18.4µM	0	4.61µM
CCc1ccccc1NC(=O)Cn1nc(N2CCN(c3ccccc3OC)CC2)ccc1=O	0	-	?	0	13µM
